# Binding of CDR-mutated scFvs to a peptide of the spike HR2 region

Target: peptide PDVDLGDISGINAS, taken from heptad repeat 2 (HR2) of SARS-CoV-2 spike.

Parent scFv Ab-14: VH joined to VL by a 15-residue (Gly4Ser)3 linker. Changes lie in the light chain CDRs alone.
VH: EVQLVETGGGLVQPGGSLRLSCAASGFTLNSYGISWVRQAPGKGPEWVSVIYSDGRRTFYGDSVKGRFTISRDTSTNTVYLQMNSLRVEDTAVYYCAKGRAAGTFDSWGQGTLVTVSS
VL: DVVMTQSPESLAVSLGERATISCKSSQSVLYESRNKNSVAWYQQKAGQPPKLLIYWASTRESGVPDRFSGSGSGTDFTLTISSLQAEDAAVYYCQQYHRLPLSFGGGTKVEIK

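The starting antibody came from a phage panning campaign against this peptide. These sequences belong to a second round, designed from the earlier measurements on random variants of the parent. Several design methods are mixed in this list. The scFvs were displayed on barcoded MATa yeast, the peptide on MATalpha yeast. The frequency of each diploid, read from paired DNA barcodes, reflects how well the two displayed proteins bind. Each replicate has its own calibration line, from reference interactions of the BCL2 family. There are six technical replicates.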

Each variant is given by its three light chain CDRs, as the data file delimits them; those of the parent are KSSQSVLYESRNKNSVA, WASTRES, QQYHRLPLS. Variants here have more than six changes. Each Kd is an estimate from the mating assay, the geometric mean of the replicates in which the pair was seen; lower is stronger. "nd" means that the variant was in the library but no mating with the target was seen in any replicate; the authors take this as a sign of poor binding, and no number exists. A sequence measured in both rounds can read differently, since the two assays cover different ranges.

With KLGQSTVIESFNKNNVA / EMSTRES / QSYDRLPLS the result was 28 nM (6 of 6 replicates; controls 0 of 18). For NLRGVEFESAMMGNAVA / DMSAVMA / QQYFRLPLH, the assay gave 110 nM (3 of 6 replicates; controls 0 of 18). For KLSMLVLMESRNHNSVA / SANTREE / QQYHRLPLS, the assay gave nd (0 of 6 replicates; controls 0 of 18). The variant KIGMTLNTLSHKQNNVA / DLVTREN / QQYYRLPLS showed 2.7 nM (6 of 6 replicates; controls 0 of 18). For MLGDVGFGLTRKEDSVA / DNDTREE / QQYDRLPLS, the assay gave 100 nM (6 of 6 replicates; controls 0 of 18). For FFALIQDSMGEAKNSIA / DRNTKAH / QQYSRLPLV, the assay gave 5.8 nM (6 of 6 replicates; controls 2 of 18). With KLEDQMQTSIASDNSVA / DTNMFHE / QQYGRLPLV the result was 190 nM (5 of 6 replicates; controls 0 of 18). The variant KISMSMLLESFHKNSVA / ENSTREE / QHYHRLPLS gave nd (0 of 6 replicates; controls 0 of 18).

The variant KVMQSVLYEDRNANNVA / NGSTRES / QQYHRLPLS gave 740 pM (6 of 6 replicates; controls 0 of 18). The variant KLQSLEQYESRNKNNVA / SASTRSS / QQYHRLPLS gave 450 pM (6 of 6 replicates; controls 0 of 18). The variant QMYPFGNAKGEGRNNVA / HVSTRAL / QQYFRLPLV gave 5.2 nM (6 of 6 replicates; controls 0 of 18). For KIHCRELMHGGQINAIA / EAAKLVE / QQYALLPLA, the assay gave 30 nM (6 of 6 replicates; controls 1 of 18). For NFSEQYKTDREQQYSIA / GMDIREK / QQYGRLPLT, the assay gave 84 nM (5 of 6 replicates; controls 0 of 18). The variant KYSQLVGMESRNMNSVA / NASTREE / QQYHRLPLS showed 1.1 nM (6 of 6 replicates; controls 1 of 18). For KLSQSWLYLSRNANSVA / NASQRED / QQYHRLPLS, the assay gave 330 pM (6 of 6 replicates; controls 5 of 18). The variant MISDLTMYGSRNVNSVA / DLSTRGR / QQYHRLPLS gave 14 nM (6 of 6 replicates; controls 1 of 18).

For MFSQSVMYGSFNRNSVA / QTSTRES / QQYDRLPLS, the assay gave 130 nM (1 of 6 replicates; controls 1 of 18). The variant HISEMIFAQSKMRNSVA / ENSTRES / QQYDRLPLS gave 110 nM (6 of 6 replicates; controls 0 of 18). The variant KISYMGEHFSTNHSAIA / QADTREQ / QQYHRLPIS gave 77 nM (6 of 6 replicates; controls 0 of 18). The variant MLSDIVKMGSRNTNSVA / DNSTRGS / QQYDRLPLS showed 300 nM (5 of 6 replicates; controls 0 of 18). For KLMQSVQYGSRALNSVA / QMETRED / QQYHRLPLS, the assay gave 3.7 nM (6 of 6 replicates; controls 1 of 18). The variant QIYQAMHTLSQMKNNVA / DVNERGS / QQYFRLPLS showed 970 pM (6 of 6 replicates; controls 1 of 18). The variant TISQSTYWESRNKNSVA / QTSTRLE / QDYDRLPLS gave 240 nM (5 of 6 replicates; controls 0 of 18). For AVSFSHLGSSRNKNSVA / EASTREQ / QQYHRLPLS, the assay gave 2.0 nM (6 of 6 replicates; controls 2 of 18).

The variant TLYGLSMSMSKNKNNVA / EMSTRER / QQYDRLPLQ showed 4.6 nM (6 of 6 replicates; controls 0 of 18). For KVSISEPYEERNKNNVA / NASTRMS / QQYHRLPLS, the assay gave 650 pM (6 of 6 replicates; controls 0 of 18). For KIGQLFMLEQLHKNNVA / GTETRVT / QHYHRLPLS, the assay gave 17 nM (5 of 6 replicates; controls 0 of 18). The variant TLGDVTRMESNKKNSIA / DMSNRAN / QQYHRLPLS showed 2.0 nM (6 of 6 replicates; controls 1 of 18). The variant LVSQQELYEDRNKNSVA / SASQRLS / QQYHRLPLS showed 2.3 nM (6 of 6 replicates; controls 0 of 18). The variant KLSMVTGHMSVSKNNVA / EMVTRVN / QQYARLPLS gave 10 nM (3 of 6 replicates; controls 0 of 18). The variant HITMGMYVKGRHHSSIA / QAETRAY / QQYDRLPLI showed 56 nM (6 of 6 replicates; controls 2 of 18). With ILAENSDDITEKQNSIA / ETQQVYS / QQYHRLPLA the result was 140 nM (6 of 6 replicates; controls 1 of 18).

With QINLQGLSAALNNRAVA / AKNLRVA / QQYNRLPLS the result was 1.8 nM (6 of 6 replicates; controls 2 of 18). With QIQGKLQEHGNQKANVA / QGVESRN / QQYFRLPLT the result was 14 nM (6 of 6 replicates; controls 2 of 18). The variant KLYMSTGYESRNEDSIA / DNSTRGR / QQYHRLPLS gave 2.6 nM (4 of 6 replicates; controls 0 of 18). The variant KLGMTVGYEQRNKSRVA / DNNTREQ / QQYDRLPLS gave 320 nM (5 of 6 replicates; controls 1 of 18).

From the list, the first 2 with no signal in any replicate:

Variant KLSMLVLMESRNHNSVA / SANTREE / QQYHRLPLS showed nd (0 of 6 replicates; controls 0 of 18).
Variant KISMSMLLESFHKNSVA / ENSTREE / QHYHRLPLS showed nd (0 of 6 replicates; controls 0 of 18).

The parent sequence was in this pool as ten entries: three were never detected, three once, and four in most replicates, with averages from 2.2 nM to 240 nM. The authors' rule: three or more of the six replicates give a measured affinity, fewer mean a poor binder. As a blank, each scFv also met three strains without target: over all light chain designs, 4% of these pairings were detected, typically at 430 nM and seldom below 38 nM. Also given: how often the same scFv was detected with the empty control strains.

The measurements come from Li et al. 2023 (doi:10.1038/s41467-023-39022-2) through the FLAb antibody collection.